Data on 1 molecule can be found in patent US12297453B2, “Generation of norepinephrine neurons from human stem cells” (Wisconsin Alumni Research Foundation, priority 2020, dated 2025).

The test system of the experiment is hindbrain R1 neuroepithelial cells. Put plainly: NE progenitor fate specification of hindbrain R1 neuroepithelial cells (qPCR of MASH1, PHOX2B, PHOX2A and regional markers). It is filed as cell-based, human. The conditions noted are these: 10 ng/ml, day 6 to day 12. The text has this:
On day 5, change the medium without SB431542. […] Cells were feed daily.
Development of NE neurons in LC depends on expression of Mash1, Phox2b and Phox2a in a stage dependent manner. See Pattyn et al., 2000, Mol Cell Neurosci, 15:235-243; Morin et al., 1997, Neuron, 18:411-423; Hirsch et al., 1998, Development, 125:599-608. Mash1 is expressed in the proliferative progenitor cells, while Phox2b and Phox2a are expressed when cells became postmitotic precursors and neurons. Pattyn et al., 2000. […] In zebrafish, FGF8 and BMPs are essential for NE differentiation 9 (FIG. 2A). Thus, the effects of FGF8 and BMPs were tested in the second week of differentiation (FIG. 2B).
MASH1 reached a maximum expression level when 25 ng/ml of Activin A was used while PHOX2B and PHOX2A reached their maximum level when Activin A concentration reached 250 ng/ml (FIG. 2E).
In further experiments it was determined whether the unique role of Activin A on human NE neuron specification was regional identity dependent. Neuroepithelial cells ranging from anterior forebrain to posterior hindbrain were obtained using different doses of CHIR99021, and then these neuroepithelial cells were treated with 25 ng/ml Activin A for 6 days. […]

B1: BMP2: bone morphogenetic protein (protein, UniProt P12643 283-396, looked up)
Bone morphogenetic protein 2: QAKHKQRKRLKSSCKRHPLYVDFSDVGWNDWIVAPPGYHAFYCHGECPFPLADHLNSTNHAIVQTLVNSVNSKIPKACCVPTELSAISMLYLDENEKVVLKNYQDMVVEGCGCR
In the case of B1, the “effect on expression of MASH1, PHOX2B, and PHOX2A” value was “no obvious effects”.
